Paper PMC12434715 (Biochemical pharmacology, 2018)

What was measured:
TK6/SULT2A1 cells = assay: MTT assay of cell growth in TK6/SULT2A1 cells; conditions: tested concentration (DHEA 5 μM, pentachlorophenol 10 μM), 48 h
TK6/SULT vector cells = assay: MTT assay of cell growth in TK6/SULT vector cells; conditions: tested concentration (DHEA 5 μM, pentachlorophenol 10 μM), 48 h

## C[C@]12CC[C@H](O)CC1=CC[C@@H]1[C@@H]2CC[C@]2(C)C(=O)CC[C@@H]12 [DHEA, dehydroepiandrosterone]
TK6/SULT2A1 cells
  Cytotoxicity of the SULT substrate alone: not cytotoxic
TK6/SULT vector cells
  Cytotoxicity of the SULT substrate alone: not cytotoxic
